Source: patent publication US12606541B2, “PPARg modulators and methods of use” (Eisai R&D Management Co., Ltd., priority 2020, dated 2026)
Where two headings read alike, the source gives them in different places.

Sequences of proteins named here, by UniProt entry; tags and fusion partners are left off. Residues count along the entry.
UniProt P37231, 234-505 limits assumed: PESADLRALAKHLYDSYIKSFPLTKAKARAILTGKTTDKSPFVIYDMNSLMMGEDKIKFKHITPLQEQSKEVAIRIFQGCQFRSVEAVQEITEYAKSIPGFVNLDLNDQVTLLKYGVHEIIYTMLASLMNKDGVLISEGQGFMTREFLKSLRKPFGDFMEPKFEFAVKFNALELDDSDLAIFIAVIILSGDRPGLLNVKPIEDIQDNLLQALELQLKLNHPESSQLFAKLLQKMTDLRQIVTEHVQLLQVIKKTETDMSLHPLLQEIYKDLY

Key:
[1] = molecular target: His6-TEV-PPARγ-(234-505) (Homo sapiens, UniProt P37231); assay: TR-FRET Assay to Measure Co-R Peptide Recruitment to PPARγ
[2] = system: UM-UC-9 engineered cells; assay: Cell proliferation / short-term viability assay, CellTiter-Glo 144 h
Method: Cell Seeding for Proliferation Assay
UM-UC-9 engineered cells were cultured in Dulbecco's Modified Eagle Medium (DMEM) supplemented with 10% FBS, 25 mM glucose (high glucose), 4.0 mM L-glutamine, 2.0 mM GlutaMAX™, 1.0 mM pyruvate, 1.0% non-essential amino acids (NEAA) in a 95% humidified incubator at 37° C. with 5% CO2. Cell banks of UM-UC-9 engineered assay-ready cells (ARCs) were prepared from a very active growth stage. Vials of ARCs containing approximately 5×10^6 cells per vial were stored in liquid nitrogen vapor phase cryostorage until use.
For making assay plates, ARCs were recovered from cryostorage, strained in a […] cell strainer, verified for cell viability >90% and counted using a cell counter (Cellometer Auto 1000, Nexelom). Each cell line was seeded into 384-well plates (50 μl/well) using DMEM medium at a density previously determined to be in log growth phase 7 days post-seeding (500 cells/well) using a bulk reagent dispenser (Multidrop™ Combi, Thermo Scientific) with a large-bore plastic-tip cassette pre-sanitized with 70% ethanol. One plate of cells was designated as the pretreatment time-zero (T0) control. Freshly seeded plates were allowed to sit lidded for 30 minutes within a biosafety cabinet for cells to settle distributed within the plate wells uniformly and then placed into an automated incubator (STX110, Liconic) at 37° C., 5% CO2, and 95% relative humidity.
Preparation of Test Compound in Assay-Ready Plate
Compounds were stored in a low-temperature sample archive as 10 mM dimethyl sulfoxide (DMSO) solutions at −20° C. under reduced humidity (−45° C. dew point) and protected from light. All samples in the automated archive are stored in 2D barcoded polypropylene tubes, tracked through a laboratory information management system (LIMS), and have been verified for identity and purity by NMR (Chemistry, H3 Biomedicine) and by LCMS (Analytical Chemistry, H3 Biomedicine) at the time of sample registration. Identity by mass matching and purity are again verified at the time of sample request fulfillment by redundant LCMS methods (acidic and basic separation protocols; Analytical Chemistry, H3 Biomedicine). Samples retrieved from low-temperature archive storage were solubilized by heated sonication (Bransonic® Ultrasonic Bath, Branson), transferred (Microlab Starlet, Hamilton) and serially-diluted (Viaflo Assist, Integra) by low-volume liquid handlers, and tracked in LIMS by automation log files to create a ID barcoded master dose-response plate (MDR) to serve as a standard source for all assay-ready plates (ARP) used within an experiment. ARPs prepared by acoustic transfer (ATS-100, EDC) of nL volumes from the MDR source were heat-sealed (PlateLoc, Agilent) and stored at −20° C. prior to use (<7 days from production). Tracking of liquid transfers via acoustic dispenser log files were used to update the LIMS system for all ARP plate maps.
Measurement of Pretreatment Control Cells and Sample Anti-Proliferative Effects on Treated Cells
On day 0 (pretreatment cells) or day 7 (treated cells), a cell proliferation assay was performed using an automated robotic assay platform (ACell, High-Res Biosolutions). Cell ARP's were removed from incubation, their plate lid discarded, and using a bulk reagent dispenser (Multidrop™ Combi, Thermo Scientific with a small-bore metal-tip cassette) 25 μL (1/2 volume) of Cell Titer-Glo® 2.0 Cell Viability Assay reagent (Promega) was added to wells of columns 1-23 (column 24 will be used as plate background or positive control). Cell ARP's were incubated at room temperature in an automation hotel position for a total of 1.0 minute while the next plate was delivered to the bulk reagent dispenser and then lid-free cell ARP's were returned to incubate at 37° C. for 2.5 hours. […]

[3] = read-out: TR-FRET i-Ag, Co-R peptide (SMRT-ID2) recruitment, top final concentration 20 μM, tested form: mixture of four diastereomers (piperidin)
[4] = read-out: CTGlo 144 h UMUC9.5, G150, tested form: mixture of four diastereomers (piperidin)
[5] = read-out: TR-FRET i-Ag, Co-R peptide (SMRT-ID2) recruitment, top final concentration 20 μM
[6] = read-out: CTGlo 144 h UMUC9.5, G150

Structure (SMILES): COc1cc(-c2cc(C(=O)N3CCC(C(=O)NCc4cccc(Cl)c4)CC34CC4)n[nH]2)c(Cl)cn1 (centres unmarked)
- AC50 ([1]; read-out: TR-FRET i-Ag, Co-R peptide (SMRT-ID2) recruitment, top final concentration 20 μM, tested form: mixture of enantiomers): 9.8 nM

Structure (SMILES): COc1cc(-c2cc(C(=O)N3CCC(C(=O)NCc4cccc(Cl)c4)CC34CCC4)n[nH]2)c(Cl)cn1 (centres unmarked)
- AC50 ([1]; read-out: TR-FRET i-Ag, Co-R peptide (SMRT-ID2) recruitment, top final concentration 20 μM, tested form: mixture of the (S) and (R) enantiomers): 488 nM
- IC50 ([2]; read-out: CTGlo 144 h UMUC9.5, G150, tested form: mixture of the (S) and (R) enantiomers): 185 nM

Structure (SMILES): CCC1CC(C(=O)N[C@H]2CC[C@@](O)(C(F)(F)F)CC2)CCN1C(=O)c1cc(-c2cc(OC)ncc2F)[nH]n1 (single isomer, unassigned)
- AC50 [1, 3]: 300 nM
- IC50 [2, 4]: 630 nM

Structure (SMILES): COc1cc(-c2cc(C(=O)N3CCC(C(=O)NC4CC5COCC(C4)N5C)CC34CC4)n[nH]2)c(F)cn1 (single isomer, unassigned)
- AC50 [1, 5]: 621 nM
- IC50 [2, 6]: 3280 nM

Structure (SMILES): COc1cc(-c2cc(C(=O)N3CCC(C(=O)NC4CCC(C(F)F)CC4)CC3)n[nH]2)c(F)cn1 (single isomer, unassigned)
- AC50 ([1]; read-out: TR-FRET i-Ag, Co-R peptide (SMRT-ID2) recruitment, top final concentration 20 μM, listed as 104b): 47.6 nM
- IC50 ([2]; read-out: CTGlo 144 h UMUC9.5, G150, listed as 104a): > 10000 nM
- IC50 ([2]; read-out: CTGlo 144 h UMUC9.5, G150, listed as 104b): 98.6 nM

Structure (SMILES): COc1cc(-c2cc(C(=O)N3CCC(C(=O)NC4CCC(C(F)F)CC4)CC3)n[nH]2)ccn1 (single isomer, unassigned)
- AC50 ([1]; read-out: TR-FRET i-Ag, Co-R peptide (SMRT-ID2) recruitment, top final concentration 20 μM, listed as 113a): 14300 nM
- AC50 ([1]; read-out: TR-FRET i-Ag, Co-R peptide (SMRT-ID2) recruitment, top final concentration 20 μM, listed as 113b): 672 nM
- IC50 ([2]; read-out: CTGlo 144 h UMUC9.5, G150, listed as 113a): > 10000 nM
- IC50 ([2]; read-out: CTGlo 144 h UMUC9.5, G150, listed as 113b): 2400 nM

Structure (SMILES): COc1cc(-c2cc(C(=O)N3CCC(C(=O)NC4CCC(C)(O)CC4)CC3)n[nH]2)c(Cl)cn1 (single isomer, unassigned)
- AC50 [1, 5]: 11100 nM
- IC50 [2, 6]: > 10000 nM

Structure (SMILES): COc1cc(-c2cc(C(=O)N3CCC(C(=O)NC4CCC(C)CC4)CC3)n[nH]2)ncn1 (single isomer, unassigned)
- AC50 ([1]; read-out: TR-FRET i-Ag, Co-R peptide (SMRT-ID2) recruitment, top final concentration 20 μM, listed as 111b): 519 nM
- IC50 [2, 6]: 640 nM

Structure (SMILES): COc1cc(-c2cc(C(=O)N3CC[C@H](C(=O)NC(C)c4nnc(C5CC5)o4)CC34CC4)n[nH]2)c(F)cn1 (single isomer, unassigned)
- AC50 [1, 5]: 270 nM
- IC50 [2, 6]: 500 nM

Structure (SMILES): COc1cc(-c2cc(C(=O)N3CC[C@H](C(=O)NC4C(C)(C)C(N5CCC(F)(F)C5)C4(C)C)CC34CC4)n[nH]2)c(F)cn1 (single isomer, unassigned)
- AC50 [1, 5]: 192 nM
- IC50 [2, 6]: 326 nM

Structure (SMILES): COc1cc(-c2cc(C(=O)N3CC[C@H](C(=O)NC4CCC(N)(C(F)(F)F)CC4)CC34CC4)n[nH]2)c(F)cn1 (single isomer, unassigned)
- AC50 [1, 5]: 4.6 nM
- IC50 [2, 6]: 8.5 nM

Structure (SMILES): COc1cc(-c2cc(C(=O)N3CC[C@H](C(=O)NC4CCC(N5CCOCC5)CC4)CC34CC4)n[nH]2)c(F)cn1 (single isomer, unassigned)
- AC50 [1, 5]: 1230 nM
- IC50 [2, 6]: 1970 nM

Structure (SMILES): COc1cc(-c2cc(C(=O)N3CC[C@H](C(=O)NC4CN(C)CCC4F)CC34CC4)n[nH]2)c(F)cn1 (single isomer, unassigned)
- AC50 [1, 3]: 174 nM
- IC50 [2, 4]: 285 nM

Structure (SMILES): COc1cc(-c2cc(C(=O)N3CCC(C(=O)NC4CCC(C(F)(F)F)N(C)C4)CC3)n[nH]2)c(Cl)cn1 (single isomer, unassigned) [Example 248-A]
- AC50 [1, 5]: 341 nM
- IC50 [2, 6]: 2530 nM

Structure (SMILES): COc1cc(-c2cc(C(=O)N3CCC(C(=O)NC4CCC(C(F)(F)F)N(C)C4)CC3)n[nH]2)c(Cl)cn1 (single isomer, unassigned) [Example 248-B]
- AC50 [1, 5]: 32.2 nM
- IC50 [2, 6]: 207 nM

Structure (SMILES): COc1cc(-c2cc(C(=O)N3CCC(C(=O)NC4CCC(C(F)(F)F)OC4)CC3)n[nH]2)c(Cl)cn1 (single isomer, unassigned) [Example 249-A]
- AC50 [1, 5]: 29.3 nM
- IC50 [2, 6]: 189 nM

Structure (SMILES): COc1cc(-c2cc(C(=O)N3CCC(C(=O)NC4CCC(C(F)(F)F)OC4)CC3)n[nH]2)c(Cl)cn1 (single isomer, unassigned) [Example 249-B]
- AC50 [1, 5]: 55.5 nM
- IC50 [2, 6]: 384 nM

Structure (SMILES): COc1cc(-c2cc(C(=O)N3[C@@H]4CC[C@H]3C[C@H](C(=O)NC3CCC(OC)(C(F)(F)F)CC3)C4)n[nH]2)c(Cl)cn1 (single isomer, unassigned) [Example 257-A]
- AC50 [1, 5]: 215 nM
- IC50 [2, 6]: 264 nM

Structure (SMILES): COc1cc(-c2cc(C(=O)N3[C@@H]4CC[C@H]3C[C@H](C(=O)NC3CCC(OC)(C(F)(F)F)CC3)C4)n[nH]2)c(Cl)cn1 (single isomer, unassigned) [Example 257-B]
- AC50 [1, 5]: 28 nM
- IC50 [2, 6]: 79.1 nM

Structure (SMILES): COc1cc(-c2cc(C(=O)N3C4CCC3CC(C(=O)NC3CCC(C(F)(F)F)N(C)C3)C4)n[nH]2)c(F)cn1 (single isomer, unassigned) [Example 306-D]
- IC50 [2, 6]: 37.4 nM
